Compound activity (PubChem)
PDI turbidity: inhibitors of human PDI, primary screen, biochemical, turbidity, single point, plate reader; PDI insulin aggregation turbidity, A650, 90 min; inhibition, % at 10 µM; 350,000 tested, 0.052% active; AID 588391, 2011;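 active means mean inhibition across replicates of 30% or more, whatever share of single replicates reach that level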
Yeast UUG start-1: yeast start codon fidelity modulation | S. cerevisiae UUG-firefly luciferase reporter, luminescence/redox ratio | activity score, % at 18.7 µM | 0.13% of 350,000 active | AID 602363;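 active means replicate mean at a twofold rise or more, about +100% in these data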;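 further: firefly luciferase made from a UUG start codon reports start codon fidelity; reporter light over untreated wells divided by growth signal over untreated wells; some hits fall short of that in this replicate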
ERp5 block: inhibitors of ERp5-driven insulin aggregation, primary screen, biochemical, turbidity, absorbance 650 nm, single point; Protein disulfide-isomerase A6 (Homo sapiens), Q15084; 90 min; inhibition, % at 9.99 µM; 350,000 tested, 0.05% active;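 active means mean replicate inhibition above about 25%, with every replicate also reaching it, limit read from the data, passing the limit was not always enough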
Cneo AK release: Cryptococcus neoformans cell lysis inducers, primary screen, AK release luminescence, single concentration; C. neoformans lysis, adenylate kinase release luminescence, 4 h; normalised: neutral wells 0, clomiphene wells 100; lysis activity, % at 15 µM; 360,000 tested, 0.2% active;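 active means mean lysis activity across replicates of at least 80%, whatever share of replicates individually reach that level; inactive means mean lysis activity below 80%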
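Material – Cryptococcus neoformans yeast cells · Quantity – 5 × 10^6 yeast cells/mL · Buffer or medium – YPD medium · Compound – single dose · Timing – 4 h static compound exposure, 37 °C, read 1 h post-reagent · Signal – adenylate kinase release luminescence · Read-out basis – lysis from increased AK signal · Benchmarks – Clomiphene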
Yeast UUG start-2: enhancers of UUG start codon usage in yeast, dose response, S. cerevisiae, UUG firefly luciferase, cherry-pick, set 2; shares compounds with Yeast UUG start-1; activation, % at 38 µM; luminescence, 4 h; 100% means double the DMSO signal; 540 tested, under 10 active;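 active means signal increase whose fitted curve reaches an absolute level of 40 at a concentration under 10 µM; inactive means activity opposite to the expected increase, or the rest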
* hit, by the source's call; i = inactive; . = no result; ! = not confirmed by another sample. An excerpt weighted towards active compounds, which were near 0.34% of everything screened.

Amino acid sequences for entries named in this document (tags omitted).
Protein disulfide-isomerase A6 (Homo sapiens), Q15084, UniProt Q15084, whole entry, looked up: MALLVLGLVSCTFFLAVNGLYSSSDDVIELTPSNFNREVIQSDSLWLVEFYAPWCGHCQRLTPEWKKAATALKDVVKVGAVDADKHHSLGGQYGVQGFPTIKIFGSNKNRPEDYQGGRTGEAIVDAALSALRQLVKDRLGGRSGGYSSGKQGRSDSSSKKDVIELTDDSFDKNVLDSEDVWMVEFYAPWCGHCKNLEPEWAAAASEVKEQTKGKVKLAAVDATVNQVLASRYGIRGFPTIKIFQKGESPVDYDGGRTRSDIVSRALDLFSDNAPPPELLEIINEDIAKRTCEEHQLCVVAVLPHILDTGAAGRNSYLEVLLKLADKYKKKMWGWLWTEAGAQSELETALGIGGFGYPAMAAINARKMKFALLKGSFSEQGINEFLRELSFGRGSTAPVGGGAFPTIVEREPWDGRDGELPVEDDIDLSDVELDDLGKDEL

Each structure is followed by: PDI turbidity, Yeast UUG start-1, ERp5 block, Cneo AK release, Yeast UUG start-2
> CN(C(=O)c1ccc(OC2CCN(CCc3ccccc3)CC2)cc1)C1CCOC1 (stereo unspecified)
    -2.7, 10.4, 8.8, -4.0, .
> O=C(/C=C/c1ccccc1)Nc1nc(-c2ccncc2)cs1
    -13.9, 594.0*, 1.2, -3.7, -7.0
> O=C(/C=C\c1ccco1)Nc1nc(-c2ccccc2)cs1
    19.6, ., 4.0, ., .
> C/C=C/c1cnc2c(c1)C(=O)N([C@@H](C)CO)C[C@@H](C)[C@@H](CN(C)S(=O)(=O)c1ccc(F)cc1)O2
    ., 75.8, -9.3, -1.9, .
> C[C@@H]1CN([C@@H](C)CO)C(=O)c2cc(C#CC3CCCCC3)cnc2O[C@H]1CN(C)S(=O)(=O)c1ccc(F)cc1
    ., 118.8*, 9.7, 2.3, i
> C[C@@H]1CN([C@H](C)CO)C(=O)c2cc(C#CC3CCCCC3)cnc2O[C@H]1CN(C)S(=O)(=O)c1ccc(F)cc1
    ., -15.8, 3.7, 0.2, .
> C/C=C/c1cnc2c(c1)C(=O)N([C@H](C)CO)C[C@H](C)[C@H](CN(C)S(=O)(=O)c1ccc(F)cc1)O2
    ., 129.6*, 8.4, -0.6, i
> C/C=C/c1ccc2c(c1)O[C@H](CN(C)C(=O)C1CCOCC1)[C@H](C)CN([C@@H](C)CO)S2(=O)=O
    ., 6.3, -2.4, 0.1, .
> CO[C@H]1CN(C)C(=O)c2cc(NC(=O)C3CCCC3)ccc2OC[C@H](C)N(CCC(F)(F)F)C[C@@H]1C
    ., 8.6, -3.4, 0.6, .
> COc1ccc2c3c([nH]c2c1)[C@H](CO)N(C(=O)c1cccnc1)CC31CN(C(=O)NC(C)C)C1
    ., ., -3.7, ., .
> CC(C)(C#CC(O)(c1ccccc1)c1ccccc1)N1CCCCC1
    -2.5, -1.8, 1.6, 2.2, .
> CC(C)(C#CC(O)(c1ccccc1)c1ccccc1)N1CCCC1
    -2.6, ., 3.2, ., 11.2
> CC(O)(C#CCN1CCCCCC1)c1ccccc1 (stereo unspecified)
    8.4, ., 0.9, ., 1.3
> CCOC(=O)CNC(=O)c1ccccc1
    7.0, 103.0*, ., -0.3, 10.2
> O=c1[nH]c(/C=C\c2ccc(O)c(Cl)c2)nc(O)c1[N+](=O)[O-]
    2.5, 166.7*, 2.1, -2.6, 1.7
> O=C(CN1c2ccccc2Sc2ccccc21)N/N=C/c1ccc(Cl)cc1
    -17.2, 180.3*, 2.0, 3.5, -6.7
> C#CCOCCOCCOCCNc1nc(N2CCN(C(=O)[C@H](CCC(=O)O)n3cc(C(N)Cc4ccc(O)cc4)nn3)CC2)nc(N2CCN(C(=O)[C@H](CCC(=O)O)n3cc(C(N)[C@H](C)CC)nn3)CC2)n1 (stereo partly specified)
    3.4, 112.2*, ., 2.2, 10.1
> C#CCOCCOCCOCCNc1nc(N2CCN(C(=O)[C@H](CCCN=C(N)N)n3cc(C(N)[C@H](C)CC)nn3)CC2)nc(N2CCN(C(=O)[C@H](CC(N)=O)n3cc(C(N)[C@@H](C)CC)nn3)CC2)n1 (stereo partly specified)
    -0.2, 121.3*, 10.6, 0.2, -3.1
> C[C@@H]1CN([C@@H](C)CO)C(=O)c2cc(NS(=O)(=O)c3ccccc3)ccc2O[C@@H]1CN(C)C(=O)Nc1ccccc1
    ., -5.7, 0.3, -4.9, .
> C[C@@H]1CCCCO[C@@H](CN(C)Cc2ccc(C(=O)O)cc2)[C@H](C)CN([C@@H](C)CO)C(=O)c2cc(NS(=O)(=O)c3ccc(F)cc3)ccc2O1
    ., 111.8*, 2.7, -12.0, i

Of the compounds above, these contain an NH in an aromatic ring:
Each structure is followed by: PDI turbidity, Yeast UUG start-1, ERp5 block, Cneo AK release, Yeast UUG start-2
> COc1ccc2c3c([nH]c2c1)[C@H](CO)N(C(=O)c1cccnc1)CC31CN(C(=O)NC(C)C)C1
    ., ., -3.7, ., .
> O=c1[nH]c(/C=C\c2ccc(O)c(Cl)c2)nc(O)c1[N+](=O)[O-]
    2.5, 166.7*, 2.1, -2.6, 1.7

The listing picks up; the 2 compounds before the break are reprinted first.
Screens by letter: A = PDI turbidity; B = Yeast UUG start-1; C = ERp5 block; D = Cneo AK release; E = Yeast UUG start-2
canonical_smiles: C[C@@H]1CN([C@@H](C)CO)C(=O)c2cc(NS(=O)(=O)c3ccccc3)ccc2O[C@@H]1CN(C)C(=O)Nc1ccccc1
  A = . | B = -5.7 | C = 0.3 | D = -4.9 | E = .
canonical_smiles: C[C@@H]1CCCCO[C@@H](CN(C)Cc2ccc(C(=O)O)cc2)[C@H](C)CN([C@@H](C)CO)C(=O)c2cc(NS(=O)(=O)c3ccc(F)cc3)ccc2O1
  A = . | B = 111.8* | C = 2.7 | D = -12.0 | E = i
canonical_smiles: C=CCN(Cc1ccccc1)C(=O)[C@H]1N(Cc2ccc(OC)cc2)C(=O)[C@@H]2[C@@H](C(=O)O)C3C=CC21O3 (stereo partly specified)
  A = . | B = -6.4 | C = 0.5 | D = 7.3 | E = .
canonical_smiles: COc1ccc(CN2C(=O)[C@@H]3[C@H]4C(=O)O[C@H](c5ccccc5)[C@@H](C)N(C)C(=O)CC/C=C/[C@H]4O[C@@]34C=CCN(Cc3ccccc3)C(=O)[C@@H]24)cc1
  A = . | B = 11.8*! | C = 4.5 | D = -15.8 | E = i
canonical_smiles: C/C=C/c1ccc([C@H]2[C@@H](CO)N3C(=O)CN(S(=O)(=O)c4ccccc4)C[C@H]23)cc1
  A = . | B = . | C = 5.1 | D = . | E = .
canonical_smiles: Cc1onc(-c2ccc(Cl)cc2)c1-c1ccnn1S(=O)(=O)c1cccc(C(F)(F)F)c1
  A = 2.6 | B = 186.8* | C = 1.8 | D = 2.0 | E = 18.7
canonical_smiles: CCCCn1c(N)c(N(CCOC)C(=O)C2CC(=O)N(c3ccc(CC)cc3)C2)c(=O)[nH]c1=O (stereo unspecified)
  A = -5.7 | B = 129.0* | C = 1.2 | D = -1.4 | E = -5.6
canonical_smiles: CCCCn1c(N)c(N(CCOC)C(=O)C2CC(=O)N(Cc3ccc(C)cc3)C2)c(=O)[nH]c1=O (stereo unspecified)
  A = 0.4 | B = -6.1 | C = -4.0 | D = 1.1 | E = .
canonical_smiles: O=C(C[C@@H]1CC[C@H](NC(=O)Nc2ccccc2F)[C@@H](CO)O1)NCc1ccc(Cl)cc1
  A = . | B = -6.7 | C = 3.6 | D = -1.8 | E = .
canonical_smiles: C[C@@H]1CN([C@H](C)CO)C(=O)c2cc(C#Cc3ccccc3F)cnc2O[C@H]1CN(C)C(=O)Cc1cccnc1
  A = . | B = -7.4 | C = 3.5 | D = 0.1 | E = .
canonical_smiles: C[C@@H]1CN([C@@H](C)CO)C(=O)c2cc(C#CCN(C)C)cnc2O[C@H]1CN(C)C(=O)Cc1ccccc1
  A = . | B = . | C = 7.9 | D = -1.6 | E = .
canonical_smiles: C[C@@H]1CN([C@@H](C)CO)C(=O)c2cc(C#Cc3ccccc3F)cnc2O[C@@H]1CN(C)C(=O)Cc1cccnc1
  A = . | B = 153.2* | C = 0.2 | D = -8.2 | E = i
canonical_smiles: C[C@@H]1CN([C@@H](C)CO)C(=O)c2cc(C#CCN(C)C)cnc2O[C@@H]1CN(C)C(=O)Cc1ccccc1
  A = . | B = 175.7* | C = 0.3 | D = 49.6 | E = i
canonical_smiles: COCc1cn(CC[C@H]2CC[C@@H](NC(=O)Nc3ccc(Cl)cc3)[C@H](CO)O2)nn1
  A = . | B = -4.1 | C = -0.6 | D = -0.5 | E = .
canonical_smiles: CN(C)C1=NC[C@H](Cc2ccccc2)N1CCCC1CCCC1
  A = 0.4 | B = 150.7* | C = -4.5 | D = 3.1 | E = 1.2
canonical_smiles: COc1ccc(-c2noc(Cc3cccs3)n2)cc1
  A = 3.0 | B = active | C = . | D = -4.5 | E = -4.4
canonical_smiles: COc1ccc(S(=O)(=O)Nc2ccc3c(c2)C(=O)N([C@@H](C)CO)C[C@H](C)[C@@H](CN(C)CC2CCCCC2)OCCCC[C@H](C)O3)cc1
  A = . | B = 41.0 | C = . | D = -8.3 | E = .
canonical_smiles: CCOc1ccc(CCNS(=O)(=O)c2c(C)cc(C)cc2C)cc1OCC
  A = . | B = . | C = . | D = . | E = i
canonical_smiles: C[C@H]1CN([C@@H](C)CO)C(=O)c2cccc(NS(=O)(=O)c3ccccc3)c2O[C@H]1CN(C)S(=O)(=O)c1ccc(F)cc1
  A = . | B = -8.5 | C = . | D = 0.9 | E = .
canonical_smiles: C[C@H](CO)N1C[C@H](C)[C@@H](CN(C)Cc2cccnc2)Oc2ncc(C#CC3CCCCC3)cc2C1=O
  A = . | B = 141.2* | C = -1.8 | D = -4.9 | E = i
canonical_smiles: C[C@@H]1CN([C@@H](C)CO)C(=O)c2cc(C#CC3CCCC3)cnc2O[C@H]1CN(C)C(=O)Nc1ccccc1
  A = . | B = 156.9* | C = -4.9 | D = 1.5 | E = i
canonical_smiles: C[C@H](CO)N1C[C@H](C)[C@@H](CN(C)Cc2ccc(C(=O)O)cc2)Oc2ccc(NC(=O)Nc3ccc4c(c3)OCO4)cc2C1=O
  A = . | B = 3.8 | C = -9.0 | D = -8.0 | E = .
